Laboratory results reported in patent US10463644B2, “Uses of sesquiterpene lactone compounds and their derivatives in drugs preparation” (ACCENDATECH, priority 2013, dated 2019).
Where two headings read alike, the source gives them in different places.

Assays:
[1] = test system: PGE2 secreted by synoviocyte; experiment: Content of PGE2 in culture supernatant of synoviocyte of RA model rats given test compound; type: in vivo; conditions: rat RA model, dose 30 mg/kg.2d; normal control 8.34 ± 1.29, NaCl 32.44 ± 10.32
Source text: (§1) Take Compound 1-50 prepared as per the method according to the present invention and employ the method provided in Reference to prepare model, group drugs and prepare culture supernatant of rat synoviocyte.
(§2) Employ the method provided in Reference to investigate the effects of the test compounds on the synoviocyte to secrete TNF-α and PGE2. Employ the method provided in Reference to investigate the effects of the test compounds on the synoviocyte to secrete IL-1β.
(§3) The experimental data of the test compound 1-50 at a dose of 30 mg/kg.2d as well as the normal control and NaCl group are as follows: […]

cancer cells = experiment: Survival rate of cancer cells after test compound is added (flow cytometry, Annexin V-FITC/PI, clinical specimen); type: cell-based, patient; conditions: Homo sapiens, 18 h, read-out: Survival rate (%) All cells (Stem cells and ordinary cells)
[2] = test system: TNF-α secreted by synoviocyte; experiment: Content of TNF-α in culture supernatant of synoviocyte of RA model rats given test compound; type: in vivo; conditions: rat RA model, dose 30 mg/kg.2d; normal control 0.38 ± 0.027, NaCl 0.74 ± 0.098
Source text: as §1, §2, §3

[3] = test system: IL-1β secreted by synoviocyte; experiment: Content of IL-1β in culture supernatant of synoviocyte of RA model rats given test compound; type: in vivo; conditions: rat RA model, dose 30 mg/kg.2d; normal control 0.16 ± 0.034, NaCl 0.49 ± 0.136
Source text: as §1, §2, §3

cancer stem cells = experiment: Survival rate of cancer stem cells after test compound is added (flow cytometry, Annexin V-FITC/PI, clinical specimen); type: cell-based, patient; conditions: Homo sapiens, 18 h
normal cells = experiment: Survival rate of normal cells after test compound is added (flow cytometry, Annexin V-FITC/PI); type: cell-based; conditions: 18 h
[4] = Head and neck squamous cell carcinomas
[5] = read-out: Survival rate (%) All cells (Stem cells and ordinary cells)
[6] = read-out: Survival rate (%) Stem cells

C=C1C(=O)O[C@H]2[C@H]1CCC(C)=C1CC[C@@](C)(O)[C@@H]12 [Compound 1]
Content of PGE2 in culture supernatant of synoviocyte (x ± s) [1]: 15.24 ± 1.77 ng/mL
viability at 10 µM (cancer cells; AML): 55%
viability at 20 µM (cancer cells; AML): 45%
viability at 10 µM (cancer cells; Brain glioma): 69%
viability at 20 µM (cancer cells; Brain glioma): 47%
viability at 10 µM (cancer cells; Brain tumor): 88%
viability at 20 µM (cancer cells; Brain tumor): 72%
viability at 10 µM (cancer cells; Breast cancer): 69%
viability at 20 µM (cancer cells; Breast cancer): 55%
viability at 10 µM (cancer cells; CLL): 55%
viability at 20 µM (cancer cells; CLL): 46%
viability at 10 µM (cancer cells; CML): 65%
viability at 20 µM (cancer cells; CML): 39%
viability at 10 µM (cancer cells; Children hepatoblastoma): 54%
viability at 20 µM (cancer cells; Children hepatoblastoma): 37%
viability at 10 µM (cancer cells; Colon adenocarcinoma): 56%
viability at 20 µM (cancer cells; Colon adenocarcinoma): 39%
viability at 10 µM (cancer cells; Colorectal cancer): 78%
viability at 20 µM (cancer cells; Colorectal cancer): 67%
viability at 10 µM (cancer cells; Gastric cancer): 56%
viability at 20 µM (cancer cells; Gastric cancer): 37%
viability at 10 µM (cancer cells; Gastrointestinal tumor): 62%
viability at 20 µM (cancer cells; Gastrointestinal tumor): 51%
viability at 10 µM (cancer cells; Glioma): 87%
viability at 20 µM (cancer cells; Glioma): 72%
viability at 10 µM (cancer cells; [4]): 67%
viability at 20 µM (cancer cells; [4]): 48%
viability at 10 µM (cancer cells; Laryngeal cancer): 75%
viability at 20 µM (cancer cells; Laryngeal cancer): 64%
viability at 10 µM (cancer cells; Liver cancer): 68%
viability at 20 µM (cancer cells; Liver cancer): 48%
viability at 10 µM (cancer cells; Lung adenocarcinoma): 47%
viability at 20 µM (cancer cells; Lung adenocarcinoma): 34%
viability at 10 µM (cancer cells; Lung cancer): 53%
viability at 20 µM (cancer cells; Lung cancer): 26%
viability at 10 µM (cancer cells; Malignant melanoma): 85%
viability at 20 µM (cancer cells; Malignant melanoma): 69%
viability at 10 µM (cancer cells; Nasopharynx cancer): 34%
viability at 20 µM (cancer cells; Nasopharynx cancer): 28%
viability at 10 µM (cancer cells; Ovarian cancer): 78%
viability at 20 µM (cancer cells; Ovarian cancer): 59%
viability at 10 µM (cancer cells; Pancreatic cancer): 64%
viability at 20 µM (cancer cells; Pancreatic cancer): 48%
viability at 10 µM (cancer cells; Prostate cancer): 46%
viability at 20 µM (cancer cells; Prostate cancer): 26%
viability at 10 µM (cancer cells; Retinoblastoma): 64%
viability at 20 µM (cancer cells; Retinoblastoma): 54%
viability at 10 µM (cancer cells; Skin cancer): 59%
viability at 20 µM (cancer cells; Skin cancer): 28%
Content of TNF-α in culture supernatant of synoviocyte (x ± s) [2]: 0.41 ± 0.076 ng/mL
Content of IL-1β in culture supernatant of synoviocyte (x ± s) [3]: 0.26 ± 0.042 ng/mL
viability at 10 µM (cancer stem cells; AML): 34%
viability at 20 µM (cancer stem cells; AML): 24%
viability at 10 µM (cancer stem cells; Brain glioma): 65%
viability at 20 µM (cancer stem cells; Brain glioma): 37%
viability at 10 µM (cancer stem cells; Brain tumor): 78%
viability at 20 µM (cancer stem cells; Brain tumor): 69%
viability at 10 µM (cancer stem cells; Breast cancer): 65%
viability at 20 µM (cancer stem cells; Breast cancer): 42%
viability at 10 µM (cancer stem cells; CLL): 44%
viability at 20 µM (cancer stem cells; CLL): 32%
viability at 10 µM (cancer stem cells; CML): 55%
viability at 20 µM (cancer stem cells; CML): 26%
viability at 10 µM (cancer stem cells; Children hepatoblastoma): 46%
viability at 20 µM (cancer stem cells; Children hepatoblastoma): 29%
viability at 10 µM (cancer stem cells; Colon adenocarcinoma): 43%
viability at 20 µM (cancer stem cells; Colon adenocarcinoma): 24%
viability at 10 µM (cancer stem cells; Colorectal cancer): 65%
viability at 20 µM (cancer stem cells; Colorectal cancer): 45%
viability at 10 µM (cancer stem cells; Gastric cancer): 45%
viability at 20 µM (cancer stem cells; Gastric cancer): 27%
viability at 10 µM (cancer stem cells; Gastrointestinal tumor): 56%
viability at 20 µM (cancer stem cells; Gastrointestinal tumor): 41%
viability at 10 µM (cancer stem cells; Glioma): 77%
viability at 20 µM (cancer stem cells; Glioma): 66%
viability at 10 µM (cancer stem cells; [4]): 60%
viability at 20 µM (cancer stem cells; [4]): 37%
viability at 10 µM (cancer stem cells; Laryngeal cancer): 65%
viability at 20 µM (cancer stem cells; Laryngeal cancer): 54%
viability at 10 µM (cancer stem cells; Liver cancer): 55%
viability at 20 µM (cancer stem cells; Liver cancer): 36%
viability at 10 µM (cancer stem cells; Lung adenocarcinoma): 36%
viability at 20 µM (cancer stem cells; Lung adenocarcinoma): 24%
viability at 10 µM (cancer stem cells; Lung cancer): 45%
viability at 20 µM (cancer stem cells; Lung cancer): 19%
viability at 10 µM (cancer stem cells; Malignant melanoma): 72%
viability at 20 µM (cancer stem cells; Malignant melanoma): 56%
viability at 10 µM (cancer stem cells; Nasopharynx cancer): 25%
viability at 20 µM (cancer stem cells; Nasopharynx cancer): 17%
viability at 10 µM (cancer stem cells; Ovarian cancer): 67%
viability at 20 µM (cancer stem cells; Ovarian cancer): 45%
viability at 10 µM (cancer stem cells; Pancreatic cancer): 54%
viability at 20 µM (cancer stem cells; Pancreatic cancer): 36%
viability at 10 µM (cancer stem cells; Prostate cancer): 34%
viability at 20 µM (cancer stem cells; Prostate cancer): 21%
viability at 10 µM (cancer stem cells; Retinoblastoma): 55%
viability at 20 µM (cancer stem cells; Retinoblastoma): 34%
viability at 10 µM (cancer stem cells; Skin cancer): 57%
viability at 20 µM (cancer stem cells; Skin cancer): 23%
viability at 10 µM (normal cells; [5]): 91%
viability at 10 µM (normal cells; [6]): 88%
viability at 20 µM (normal cells; [5]): 93%
viability at 20 µM (normal cells; [6]): 91%
